Results published in patent publication US4992421A, “Luteinizing hormone releasing hormone antagonist” (priority 1988, dated 1991).

Protein sequences, listed by entry. Tags and fused reporters are not part of them.
UniProt P30969, whole entry: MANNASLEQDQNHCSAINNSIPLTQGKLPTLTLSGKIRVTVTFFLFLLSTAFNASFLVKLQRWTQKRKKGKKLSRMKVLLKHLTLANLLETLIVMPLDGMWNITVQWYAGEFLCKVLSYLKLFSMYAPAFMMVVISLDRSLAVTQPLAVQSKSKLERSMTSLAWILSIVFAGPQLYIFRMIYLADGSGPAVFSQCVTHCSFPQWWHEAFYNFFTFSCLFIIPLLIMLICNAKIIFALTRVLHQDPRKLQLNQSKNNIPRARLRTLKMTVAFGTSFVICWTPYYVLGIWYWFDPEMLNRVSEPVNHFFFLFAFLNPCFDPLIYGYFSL

Biological target: LHRH receptors (rat pituitary membranes) (Rattus norvegicus, UniProt P30969)
Assay: LHRH radioligand receptor binding assay
Description: Receptor Binding. A radioligand receptor binding assay is performed in a similar way to that described in the literature (J. Marion et al., Mol. Pharmacol. 19 399 (1981)). [D-Leu^6 -des Gly^10 ]-LHRH ethyl amide was radioiodinated by the chloramine-T method and used as the radioligand. Pituitary membranes containing LHRH receptors are prepared in batches from quick-frozen rat pituitaries obtained from Hilltop Labs. The radioligand (50 pM), receptors, and compounds to be tested are coincubated for 2 hours at 4° C. Bound ligand is separated from free ligand via centrifugation and aspiration. Compounds are tested at six half-log concentration increments, and the equilibrium dissociation constant (KI) is calculated from the concentration which displaces 50% of specifically bound radioligand.

[1] = read-out: LHRH RECEPTOR BINDING AFFINITY KI, radioiodinated [D-Leu6-des Gly10]-LHRH ethyl amide 50 pM, 2 hours at 4° C., tested form: TFA
[2] = read-out: LHRH RECEPTOR BINDING AFFINITY KI, radioiodinated [D-Leu6-des Gly10]-LHRH ethyl amide 50 pM, 2 hours at 4° C.

| SMILES | Ki [2] | also measured |
| --- | --- | --- |
| O=C(NCC1COC(Cn2ccnc2)(c2ccc(Cl)cc2Cl)O1)[C@H](Cc1c[nH]cn1)NC(=O)[C@@H]1CCCN1C(=O)OCC(c1ccccc1)c1ccccc1 (stereo partly shown) | – | Ki [1]: 480 nM |
| N[C@@H](CO)C(=O)N[C@@H](Cc1c[nH]c2ccccc12)C(=O)NCC1COC(Cn2ccnc2)(c2ccc(Cl)cc2Cl)O1 (stereo partly shown) | – | Ki [1]: 4780 nM |
| O=C(NCC1COC(Cn2ccnc2)(c2ccc(Cl)cc2Cl)O1)[C@H](Cc1c[nH]cn1)NC(=O)[C@@H]1CCC(=O)N1C(=O)OCc1ccccc1 (stereo partly shown) | 1900 nM | – |
| O=C1CC[C@@H](C(=O)N[C@@H](Cc2c[nH]cn2)C(=O)NCC2COC(Cn3ccnc3)(c3ccc(Cl)cc3Cl)O2)N1 (stereo partly shown) | 10000 nM | – |
| CC(C)(C)OC(=O)N[C@@H](Cc1c[nH]c2ccccc12)C(=O)N1CCC[C@H]1C(=O)N[C@@H](Cc1c[nH]cn1)C(=O)NCC1COC(Cn2ccnc2)(c2ccc(Cl)cc2Cl)O1 (stereo partly shown) | 500 nM | – |
| O=C(NCC1COC(Cn2ccnc2)(c2ccc(Cl)cc2Cl)O1)[C@H](Cc1c[nH]cn1)NC(=O)[C@@H]1CCCN1C(=O)OCc1ccccc1 (stereo partly shown) | 1120 nM | – |
| O=C(N[C@@H](Cc1ccccc1)C(=O)N1CCC[C@H]1C(=O)N[C@@H](Cc1c[nH]cn1)C(=O)NCC1COC(Cn2ccnc2)(c2ccc(Cl)cc2Cl)O1)OCc1ccccc1 (stereo partly shown) | 970 nM | – |
| N[C@@H](Cc1c[nH]c2ccccc12)C(=O)NCC1COC(Cn2ccnc2)(c2ccc(Cl)cc2Cl)O1 (stereo partly shown) | – | Ki (read-out: LHRH RECEPTOR BINDING AFFINITY KI, radioiodinated [D-Leu6-des Gly10]-LHRH ethyl amide 50 pM, 2 hours at 4° C., tested form: 2HCl): 10000 nM |
| O=C1CCC(C(=O)NC(Cc2cnc[nH]2)C(=O)NC(Cc2c[nH]c3ccccc23)C(=O)NCC2COC(Cn3ccnc3)(c3ccc(Cl)cc3Cl)O2)N1 (stereo not shown) | 2000 nM | – |
| O=C(NCC1COC(Cn2ccnc2)(c2ccc(Cl)cc2Cl)O1)[C@@H]1CCC(=O)N1C(=O)OCc1ccccc1 (stereo partly shown) | 31000 nM | – |

Where two headings read alike, the source gives them in different places.
